## Antibody variant affinities, Ab-95 light chain, assay 2

Reference: Engelhart et al. 2022, doi:10.1038/s41597-022-01779-4. File: FLAb, binding data.

The target is the same throughout: PDVDLGDISGINAS, from the HR2 region of SARS-CoV-2 spike.

Parent: Ab-95, a human scFv built as VH, a (GGGGS)3 linker, VL. Only the CDRs of the light chain vary.
VH: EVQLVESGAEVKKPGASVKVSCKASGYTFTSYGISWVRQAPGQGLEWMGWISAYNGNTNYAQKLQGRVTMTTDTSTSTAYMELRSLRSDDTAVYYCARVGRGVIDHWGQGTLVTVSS
VL: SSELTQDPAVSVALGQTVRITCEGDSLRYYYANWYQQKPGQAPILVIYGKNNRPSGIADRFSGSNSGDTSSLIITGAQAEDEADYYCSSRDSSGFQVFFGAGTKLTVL

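Phage display of a naive human antibody library on the peptide gave the parent. Variants in AAYL52 differ from the parent at up to three CDR positions; double and triple changes were sampled at random. Affinity was read by AlphaSeq, a pooled yeast mating assay with surface-displayed partners. After mating in shaken culture at 30 °C for 16 h, diploids were selected and their barcode pairs sequenced. Read counts were normalised to the haploid input and turned into Kd by a linear fit to BCL2-family pairs of known affinity, for each replicate. There are three technical replicates.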

Substitutions are numbered in sequence along the VL above, starting at 1 (not Kabat). This list gathers variants with a substitution at D25 (VL, numbered from residue 1). Affinities are written as log10 Kd with Kd in nM; a lower number is a better binder. A mean of the replicates is given; it leaves out those without a signal. "nd" marks a missing value. The strain was present, yet no cells mated with the target were sequenced in any replicate, which points to weak or no binding. In this assay the parent's reference entry averaged 2.31; its copy inside this library read 2.25. Nonspecific signal, from three strains lacking the peptide, appeared in 28% of pairings of library AAYL52, centred on 3.91 (5% of these signals below 2.90); values are not corrected for it. The control count says in how many pairings with the empty strains this scFv gave a signal.

With D25K/D91E/S93K the result was 3.32 (3 of 3 replicates; controls 4 of 9). For G24Y/D25L/Y31H, the assay gave 3.81 (1 of 3 replicates; controls 2 of 9). Variant E23R/D25V/Y30L gave 3.19 (3 of 3 replicates; controls 2 of 9). Variant D25T/S93H/F95R showed 2.80 (3 of 3 replicates; controls 3 of 9). With G24M/D25M/N52I the result was 3.59 (2 of 3 replicates; controls 3 of 9).

For D25G/N33P/K50I, the assay gave 4.26 (2 of 3 replicates; controls 4 of 9). Variant D25P/K50E showed 1.81 (3 of 3 replicates; controls 2 of 9). For D25R/L27I/A32R, the assay gave nd (0 of 3 replicates; controls 1 of 9). Variant D25S/P54I/S92N gave 3.37 (3 of 3 replicates; controls 1 of 9). With D25Q/Y30M/D91P the result was 5.04 (2 of 3 replicates; controls 5 of 9).

For D25R/L27A/G49Q, the assay gave 4.51 (1 of 3 replicates; controls 1 of 9). For D25F/S55D/D91R, the assay gave 3.54 (1 of 3 replicates; controls 1 of 9). With D25P/L27F/N33I the result was 3.86 (1 of 3 replicates; controls 1 of 9). For D25W/R90G/S93Y, the assay gave 3.15 (3 of 3 replicates; controls 1 of 9). Variant D25Q/L27N/G94E gave nd (0 of 3 replicates; controls 0 of 9).

Variant D25E/S55T/S89M showed 2.76 (3 of 3 replicates; controls 6 of 9). For D25S/K50A/G94W, the assay gave 2.24 (3 of 3 replicates; controls 4 of 9). For E23A/D25A/Y30K, the assay gave 1.46 (3 of 3 replicates; controls 1 of 9). Variant D25F/N51S/N52R showed 3.51 (2 of 3 replicates; controls 4 of 9). Variant D25T/S88N/S89V gave 2.73 (3 of 3 replicates; controls 2 of 9).

For D25Y/S55T/S92K, the assay gave 2.88 (1 of 3 replicates; controls 0 of 9). Variant D25T/R28E/A32R showed 4.51 (2 of 3 replicates; controls 2 of 9). With D25H/R28F/S92R the result was 2.13 (3 of 3 replicates; controls 4 of 9). Variant D25I/P54C showed 3.26 (3 of 3 replicates; controls 1 of 9). With D25A/S26F/R90M the result was nd (0 of 3 replicates; controls 0 of 9).

Variant D25T/S89A/F95S showed 2.04 (3 of 3 replicates; controls 6 of 9). With D25M/R28D/G49K the result was nd (0 of 3 replicates; controls 6 of 9). Variant D25W/F95H gave 3.35 (2 of 3 replicates; controls 2 of 9). For D25W/S55A/Q96P, the assay gave 3.32 (2 of 3 replicates; controls 3 of 9). Variant D25H/S92N/F95N gave 3.94 (2 of 3 replicates; controls 0 of 9).

Variant D25N/N33W showed 4.66 (2 of 3 replicates; controls 0 of 9). Variant D25A/N33S/S93N showed 3.72 (1 of 3 replicates; controls 0 of 9). For D25W/S88N/G94K, the assay gave nd (0 of 3 replicates; controls 0 of 9). Variant D25C/S93K gave 3.37 (3 of 3 replicates; controls 2 of 9).

Excerpt, the first 4 entries:

changes	log10 Kd (nM), mean	seen in	empty controls
D25K/D91E/S93K	3.32	3/3	4/9
G24Y/D25L/Y31H	3.81	1/3	2/9
E23R/D25V/Y30L	3.19	3/3	2/9
D25T/S93H/F95R	2.80	3/3	3/9